From patent US20150284674A1, “CAMPYLOBACTER BACTERIA AND DETECTION” (priority 2012, published 2015)

Test system: Campylobacter novel strains
Experiment: Antimicrobial susceptibility testing by agar dilution method (MIC);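 further: agar dilution MIC on HBA, used in place of the BSAC-recommended Iso-sensitest agar, across a panel of 14 antimicrobials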
Conditions: agar dilution on HBA; for Distribution (%) of MIC (μg/ml) 0.50: % of novel strains with MIC 0.50 μg/ml

Substance	Distribution (%) of MIC (μg/ml) 0.25 (% of novel strains with MIC 0.25 μg/ml) [%]	Distribution (%) of MIC (μg/ml) 0.50 [%]
Gentamycin	4.35	95.65
Polymyxin B	–	4.35
